Source: patent US20210198248A1, “FUMARATE SALT OF 5-((5-METHYL-2-((3,4,5-TRIMETHYLPHENYL)AMINO)PYRIMIDIN-4-YL)AMINO)-BENZO[D]OXAZOL-2(3H)-ONE” (ASTRAZENECA AB, priority 2018, published 2021)

Assay: Dissolution measurements, μ-DISS Profiler, micronized material
Assay type: physicochemical
Method: In general, 0.5 mg of the micronized material was added to the stirred dissolution media (20 mL 0.1 M acetate buffer, pH 4.5, 200 rpm, at 37° C.). The dissolution profiles were generated by measuring the UV absorbance at 280 nm wavelength. The material of interest was evaluated in triplicate.
The particle size of the materials was reduced by micronisation, as follows, using a 2″ Spiral Jet Mill or a 1″ MCOne fluid Jet Mill followed by subsequent particle size distribution (PSD) measurements.
Test substance was fed into the jet mill chamber, via a venturi feed system, by a vibratory feeder. Micronisation was achieved by particle collisions brought about by compressed gas (nitrogen) forced through angled nozzles in the jet mill chamber. Particles of different sizes develop different speeds and momentum and as the particle size is reduced the particles spiral towards the centre of the jet mill and exit via an exhaust into a collection bin. The process parameters that control the particle size, in addition to the inherent properties of the compound to be micronised, are the feed rate, grinding pressure and venturi pressure and these are summarised in Table 2 below.

- dissolution rate compared to free base (0.1 M acetate buffer pH 4.5, 37° C., micronized material): enhanced dissolution rate
- dissolution profile (suitability) (balance of solubility and kinetics of salt dissociation compared to the free base): suitable dissolution profile
- intrinsic dissolution rate (general statement, compared to Compound (I) free base): good intrinsic dissolution rate
SMILES: Cc1cnc(Nc2cc(C)c(C)c(C)c2)nc1Nc1ccc2oc(=O)[nH]c2c1 [hemi-fumarate salt, 5-((5-methyl-2-((3,4,5-trimethylphenyl)-amino)pyrimidin-4-yl)amino)benzo[d]oxazol-2(3H)-one hemi-fumarate Salt]

Where a name gives a salt, the structure may show the parent alone.
